Measurements published in US9345742B2, “Aminostatin derivatives for the treatment of arthrosis” (MERCK PATENT GMBH, priority 2011, dated 2016).

Amino acid sequences for entries named in this document (tags omitted). Residues count along the entry.
UniProt P07339, 65-161: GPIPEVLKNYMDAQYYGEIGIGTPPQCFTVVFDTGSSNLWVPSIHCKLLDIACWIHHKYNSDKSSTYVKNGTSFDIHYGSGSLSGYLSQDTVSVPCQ
UniProt P07339, 169-412: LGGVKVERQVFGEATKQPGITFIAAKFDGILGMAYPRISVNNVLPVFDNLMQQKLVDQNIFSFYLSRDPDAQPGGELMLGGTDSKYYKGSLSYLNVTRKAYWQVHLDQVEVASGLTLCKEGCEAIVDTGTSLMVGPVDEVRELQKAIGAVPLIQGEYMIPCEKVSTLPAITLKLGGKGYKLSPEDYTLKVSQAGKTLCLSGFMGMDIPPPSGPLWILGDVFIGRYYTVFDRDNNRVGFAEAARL

Each compound was assayed against cathepsin D isolated from the human liver (Homo sapiens (Human), UniProt P07339) (assay: In-vitro fluorescence assay for identification of cathepsin D inhibitors). Conditions: cathepsin D 1.4 nM, pH 5.5; read-out: CatD assay IC50-.
Assay type: biochemical
Experimental: In order to identify modulators of cathepsin D activity, a continuous enzymatic test was carried out with a synthetic peptide which carries a fluorescent group (MCA=(7-methoxycoumarin-4-yl)acetyl) which is quenched by energy transfer from a Dpn (2,4 dinitrophenyl) group on the same molecule, in Greiner 384-well nb microtitre plates. Cleavage of the peptidic substrate by cathepsin D causes an increase in the fluorescence intensity. In order to determine the efficacy of substances, the time-dependent increase in the fluorescence intensity in the presence of the substance was compared with the time-dependent increase in fluorescence in the absence of substances. The reference substance used was pepstatin A (Sigma-Aldrich). The substrate used was MCAGKPILFFRLK(Dnp)d-R—NH2 (Enzo Life Sciences, Lörrach). The enzyme employed was cathepsin D isolated from the human liver (Sigma-Aldrich) in a final concentration of 1.4 nM. The test was carried out in 100 mM sodium acetate buffer, 1.25% (v/v) of DMSO, 0.25% (w/v) of Chaps, pH 5.5. 2 μl of each substance solution with serially diluted substance concentration were added to in each case 4 μl of cathepsin D solution and incubated at room temperature for 10 min. The reaction was started by addition of 2 μl of substrate solution (final concentration 5 μM). After carrying out a starting-point fluorescence measurement (excitation wavelength 340 nm/emission wavelength 450 nm) using an Envision multilabel reader (Perkin Elmer), the reaction was incubated at room temperature for 60 min. The amount of peptide fragment cleaved off during the reaction time was subsequently measured by determination of the increase in the fluorescence intensity at 450 nm (excitation wavelength 340 nm).

SMILES | IC50
CC[C@H](C)[C@H](NC(=O)C[C@H](N)[C@H](Cc1ccccc1)NC(=O)[C@@H](NC(=O)[C@H](Cc1ccccc1)NC(=O)CC(C)C)C(C)C)C(=O)N[C@H](C(=O)OC)C(C)C [Compound 19, Methyl (S)-2-[(2S,3S)-2-((3S,4S)-3-amino-4-{(S)-3-methyl-2-[(S)-2-(3-methylbutyrylamino)-3-phenylpropionylamino]butyrylamino}-5-phenylpentanoylamino)-3-methyl-pentanoylamino]-3-methylbutyrate] | 3.9 nM
CC[C@H](C)[C@H](NC(=O)C[C@H](N)[C@H](Cc1ccccc1)NC(=O)[C@@H](NC(=O)[C@H](CC(C)C)NC(=O)CC(C)C)C(C)C)C(=O)NCCc1ccccc1 [Compound 24, N-((1S,2S)-2-Methyl-1-phenethyl-carbamoylbutyl)-(S)-3-amino-4-{(S)-(S)-3-methyl-2-[(S)-4-methyl-2-(3-methylbutyryl-amino)pentanoylamino]butyrylamino}-5-phenylpentanamide] | 240 nM
CC[C@H](C)[C@H](NC(=O)C[C@H](N)[C@H](Cc1ccccc1)NC(=O)[C@@H](NC(=O)[C@H](Cc1ccccc1)NC(=O)CC(C)C)C(C)C)C(=O)N[C@H](C(=O)O)C(C)C [Compound 33, (S)-2-[(2S,3S)-2-((3S,4S)-3-Amino-4-{(S)-3-methyl-2-[(S)-2-(3-methylbutyrylamino)-3-phenylpropionylamino]-1-oxobutyl-amino}-5-phenylpentanoylamino)-3-methylpentanoylamino]-3-methyl-butyric acid] | 4.1 nM
